This passage reports IC50 results from ChEMBL document CHEMBL1135040, “[(3)H]-M-MPEP, a potent, subtype-selective radioligand for the metabotropic glutamate receptor subtype 5” (Bioorg Med Chem Lett, 2002).

Protein sequences, listed by entry. Tags and fused reporters are not part of them.
UniProt P41594, whole entry: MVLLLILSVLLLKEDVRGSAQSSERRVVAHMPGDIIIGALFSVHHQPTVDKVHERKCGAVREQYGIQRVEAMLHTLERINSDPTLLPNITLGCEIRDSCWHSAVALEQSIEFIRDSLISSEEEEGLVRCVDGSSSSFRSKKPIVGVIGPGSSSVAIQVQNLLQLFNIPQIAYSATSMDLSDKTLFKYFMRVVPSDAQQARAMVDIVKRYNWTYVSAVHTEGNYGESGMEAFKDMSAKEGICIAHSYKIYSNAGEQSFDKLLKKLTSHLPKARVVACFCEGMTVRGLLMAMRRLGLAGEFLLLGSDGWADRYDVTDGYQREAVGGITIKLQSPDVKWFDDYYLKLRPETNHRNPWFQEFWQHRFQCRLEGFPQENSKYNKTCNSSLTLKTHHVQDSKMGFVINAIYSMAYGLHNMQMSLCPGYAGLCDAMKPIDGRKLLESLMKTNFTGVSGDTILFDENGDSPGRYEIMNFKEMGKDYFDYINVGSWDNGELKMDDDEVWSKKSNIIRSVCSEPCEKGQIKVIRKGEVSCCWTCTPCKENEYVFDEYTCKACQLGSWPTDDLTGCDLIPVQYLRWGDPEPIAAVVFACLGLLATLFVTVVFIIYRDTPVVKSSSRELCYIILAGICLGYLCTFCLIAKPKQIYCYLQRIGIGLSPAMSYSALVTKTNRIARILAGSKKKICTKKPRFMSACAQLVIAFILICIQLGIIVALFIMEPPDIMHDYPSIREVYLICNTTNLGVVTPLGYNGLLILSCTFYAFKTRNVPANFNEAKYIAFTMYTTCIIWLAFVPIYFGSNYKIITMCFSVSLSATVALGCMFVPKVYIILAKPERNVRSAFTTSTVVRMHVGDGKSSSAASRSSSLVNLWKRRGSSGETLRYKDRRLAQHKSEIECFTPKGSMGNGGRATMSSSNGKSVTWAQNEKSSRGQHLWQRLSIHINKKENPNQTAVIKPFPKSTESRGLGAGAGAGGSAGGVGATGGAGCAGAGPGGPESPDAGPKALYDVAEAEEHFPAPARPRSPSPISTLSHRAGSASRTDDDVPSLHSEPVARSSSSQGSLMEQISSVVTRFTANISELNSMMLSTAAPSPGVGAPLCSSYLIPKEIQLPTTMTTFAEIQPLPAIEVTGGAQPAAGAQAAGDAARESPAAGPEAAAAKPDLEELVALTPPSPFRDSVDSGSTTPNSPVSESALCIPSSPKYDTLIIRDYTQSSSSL

Broadly, the pIC50 is the negative decadic logarithm of the IC50, by convention in mol/L.

pIC50: −log10 of the molar value.

This test has as its target Metabotropic glutamate receptor 5 (Homo sapiens, UniProt P41594). The experiment in a line: Tested in vitro binding affinity for displacement of [3H]M-MPEP from membrane of L(-tk) cells expressing the Metabotropic glutamate receptor 5, activity expressed as IC50.

On to `Cc1cccc(C#Cc2ccccc2)n1`, for which the pIC50 was 7.70.
